The values below come from patent publication US9119848B2, “Morphinan derivatives for the treatment of drug overdose” (Alkermes Pharma Ireland Limited, priority 2009, dated 2015).

The subject of test [1] is remifentanil-induced miosis. Conditions: for onset of blockade of pupil miosis induced by REMI: healthy non-dependent opioid experienced subjects.
Test [2] concerns subjective effects of remifentanil challenge infusion. Conditions: 10 and 20 mg; p=0.31 vs saline.

Read-outs that look alike come from different tables or passages of the source. A value given as a limit tells only on which side of the number the result lay.

Turning to `NC(=O)c1ccc2c(c1O)[C@]13CCN(CC4CC4)[C@H](C2)[C@]1(O)CCC(=O)C3` [Compound-1], the “duration of blockade of pupil miosis (blockade persisted)” value in test [1] (10 and 20 mg, p=0.54 vs saline) is “at least 24 hours”. Also, the “onset of blockade of pupil miosis induced by REMI” value is ≤ 1 h in test [1] (Compound-1 10 mg) and ≤ 0.25 h in test [1] (Compound-1 20 mg). Further, the “Compound-1 concentrations sufficient for full blockade” value in test [1] (blockade of REMI effects) is given as “greater than 15 ng/mL”. Further, the “partial blockade of physiologic and subjective effects persisted” value in test [1] (post-dose, single dose 10 or 20 mg) is 4 days. In addition, the “duration of blockade of subjective effects of "Drug Liking"” value in test [2] is “at least 48 hours”.
